Values quoted from earlier work as cited in patent US20180353175A1, “Surgical Fastener with Broad Spectrum MMP Inhibitors” (Ethicon LLC, priority 2017, published 2018).

Sequences of proteins named here, by UniProt entry; tags and fusion partners are left off. Residues count along the entry.
UniProt P22894, 101-467, species assumed: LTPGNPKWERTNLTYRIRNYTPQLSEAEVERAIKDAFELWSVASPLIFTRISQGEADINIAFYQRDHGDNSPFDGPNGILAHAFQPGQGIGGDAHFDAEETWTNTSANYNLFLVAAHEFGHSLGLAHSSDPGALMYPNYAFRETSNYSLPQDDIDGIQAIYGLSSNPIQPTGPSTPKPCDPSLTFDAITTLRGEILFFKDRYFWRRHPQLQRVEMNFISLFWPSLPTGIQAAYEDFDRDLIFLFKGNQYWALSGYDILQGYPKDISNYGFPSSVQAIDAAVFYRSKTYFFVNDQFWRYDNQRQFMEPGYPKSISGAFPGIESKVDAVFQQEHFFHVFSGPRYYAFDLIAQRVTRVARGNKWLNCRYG

Columns and labels:
[1] = molecular target: T1, MMP1 (Homo sapiens, UniProt P03956)
T1 sequence (P03956 100-469): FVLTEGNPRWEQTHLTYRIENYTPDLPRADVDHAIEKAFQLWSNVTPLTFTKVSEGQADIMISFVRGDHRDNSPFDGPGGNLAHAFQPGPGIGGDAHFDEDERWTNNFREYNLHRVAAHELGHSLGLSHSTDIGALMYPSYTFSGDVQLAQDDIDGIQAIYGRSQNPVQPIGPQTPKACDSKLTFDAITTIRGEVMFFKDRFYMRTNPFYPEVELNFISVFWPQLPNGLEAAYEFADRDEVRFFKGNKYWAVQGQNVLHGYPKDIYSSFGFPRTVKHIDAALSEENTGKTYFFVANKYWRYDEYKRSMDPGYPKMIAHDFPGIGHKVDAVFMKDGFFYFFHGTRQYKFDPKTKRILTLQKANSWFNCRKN

[2] = molecular target: MMP8 (Homo sapiens, UniProt P22894)

IC50 [1]: 33 nM
IC50 [2]: 8 nM
SMILES: COc1ccc(S(=O)(=O)N(Cc2cccnc2)C(C(=O)NO)C(C)C)cc1 (centres unmarked) [CGS-27023-A]
